Test results: PubChem BioAssay AID588456 (National Center for Advancing Translational Sciences (NCATS), 2011)
This is a selection; strong and weak results do not stand in their true shares. Active and inactive are the calls of the source. Calls come from the whole dose curve; as a rule, active = well fitted inhibition curve with a large enough effect; inconclusive = small, poorly fitted or top-dose-only effect; inactive = no such curve, though single readings can be large or run the other way.

Sequences of proteins named here, by UniProt entry; tags and fusion partners are left off.
UniProt O89049, whole entry, looked up: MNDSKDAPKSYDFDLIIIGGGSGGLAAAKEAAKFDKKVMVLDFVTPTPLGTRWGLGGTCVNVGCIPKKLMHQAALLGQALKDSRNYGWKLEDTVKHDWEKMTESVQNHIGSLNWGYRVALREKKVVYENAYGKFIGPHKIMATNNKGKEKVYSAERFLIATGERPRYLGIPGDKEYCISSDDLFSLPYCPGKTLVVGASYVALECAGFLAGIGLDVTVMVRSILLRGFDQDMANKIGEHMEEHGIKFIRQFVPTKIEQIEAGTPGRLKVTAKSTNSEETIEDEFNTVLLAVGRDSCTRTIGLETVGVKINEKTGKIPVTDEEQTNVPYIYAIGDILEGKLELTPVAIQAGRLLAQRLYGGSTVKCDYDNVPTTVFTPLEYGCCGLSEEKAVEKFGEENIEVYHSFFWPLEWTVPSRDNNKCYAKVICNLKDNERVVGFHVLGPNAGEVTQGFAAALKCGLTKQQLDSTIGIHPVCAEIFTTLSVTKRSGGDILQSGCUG

Molecular target: Thioredoxin reductase 1, cytoplasmic (Rattus norvegicus) (UniProt O89049)
Assay: qHTS Assay for Substrates of Mammalian Selenoprotein Thioredoxin Reductase 1 (TrxR1): qHTS; note: nearly all actives have a fitted effect of over 50% in size
Conditions: purified TrxR1 substrate turnover, NADPH consumption readout; at 114 µM (top of the series) unless noted
% is set by controls: 0 for no effect and ±100 for the full control effect.

SMILES | activity change, negative = substrate turnover
Cc1ccc(OP(=O)(Nc2ccccn2)Oc2ccc(C)cc2)cc1 | inactive: -5.09% [at 57.1 µM]
CC(=O)NC(SC(=S)N(CC(C)C)CC(C)C)C(Cl)(Cl)Cl (stereo unspecified) | inactive: -5.85%
CN(C(=O)Cc1ccc(Cl)c(Cl)c1)[C@@H]1CCCC[C@@H]1N1CCCC1 | inactive: 5.85% [at 57.1 µM]
O=C(OC1CN2CCC1CC2)c1ccccc1 (stereo unspecified) | inactive: 6.86% [at 57.1 µM]
CCC(=O)N1C2C3N(C(=O)CC)C1C1N(C(=O)CC)C(C(N1C(=O)CC)N3C(=O)CC)N2C(=O)CC | inactive: 0.961%
O=P(Nc1nc2ccccc2s1)(c1ccccc1)c1ccccc1 | inactive: 5.64%
C[C@H]1OP(=O)(Oc2ccccc2)[C@H](O)[C@H](O)[C@H]1N=[N+]=[N-] (stereo partly specified) | inactive: -3.85% [at 57.1 µM]
COc1ccc(N)c([N+](=O)[O-])c1[N+](=O)[O-] | inactive: 1.38%
O=P(Nc1ccccn1)(c1ccc(Br)cc1)c1ccc(Br)cc1 | inactive: 3.31%
CN(C)C1(CNC(=O)c2ccc(Cl)c(S(N)(=O)=O)c2)CCCCC1 | inactive: 10.7% [at 57.1 µM]
C(Cc1nn[nH]n1)Cc1nn[nH]n1 | inactive: 1.34%
Nc1ccc([As](=O)(O)c2ccc([N+](=O)[O-])cc2)cc1 | inactive: -0.118%
O=C(OC1CN2CCC1CC2)c1cccc(Cl)c1 (stereo unspecified) | inactive: 7.12% [at 57.1 µM]
O=[N+]([O-])c1ccc(O)c(/C=N/Nc2ccc([N+](=O)[O-])cc2[N+](=O)[O-])c1 | inactive: -7.61%
O=[N+]([O-])c1ncn(CCn2cnc([N+](=O)[O-])n2)n1 | inactive: -0.668%
CC(=O)NC(SC(=S)N(C)C)C(Cl)(Cl)Cl (stereo unspecified) | inactive: 11%
O=[As](O)(c1ccccc1)c1ccc(O)cc1 | inactive: 6.79%
c1nnnn1CCn1cnnn1 | inactive: 0.136%
CC(C)C(=O)NC(Sc1ccccc1)C(Cl)(Cl)Cl (stereo unspecified) | inactive: -20.5% [at 57.1 µM]
O=P(Nc1nccs1)(c1ccccc1)c1ccccc1 | inactive: 2.59%
COc1cccc([N+](=O)[O-])c1[N+](=O)[O-] | inactive: 5.82%
